Experimental data: paper PMC8567228 (EMBO Reports, 2021)

Biological target: the molecule itself
Experiment: mass photometry; 40 nM protein in 40 mM HEPES pH 7.5; OneMP mass photometer

B1: His6-SUMO-PPM1H wild type, full length (enzyme, human, UniProt Q9ULR3 1-514, looked up)
chain: MLTRVKSAVANFMGGIMAGSSGSEHGGGSCGGSDLPLRFPYGRPEFLGLSQDEVECSADHIARPILILKETRRLPWATGYAEVINAGKSTHNEDQASCEVLTVKKKAGAVTSTPNRNSSKRRSSLPNGEGLQLKENSESEGVSCHYWSLFDGHAGSGAAVVASRLLQHHITEQLQDIVDILKNSAVLPPTCLGEEPENTPANSRTLTRAASLRGGVGAPGSPSTPPTRFFTEKKIPHECLVIGALESAFKEMDLQIERERSSYNISGGCTALIVICLLGKLYVANAGDSRAIIIRNGEIIPMSSEFTPETERQRLQYLAFMQPHLLGNEFTHLEFPRRVQRKELGKKMLYRDFNMTGWAYKTIEDEDLKFPLIYGEGKKARVMATIGVTRGLGDHDLKVHDSNIYIKPFLSSAPEVRIYDLSKYDHGSDDVLILATDGLWDVLSNEEVAEAITQFLPNCDPDDPHRYTLAAQDLVMRARGVLKDRGWRISNDRLGSGDDISVYVIPLIHGNKLS
notes: PPM1H phosphatase, human, full length; Calculated mass of the fusion protein about 68.5 kDa; also called His6‐SUMO‐PPM1H^WT; 6HIS‐SUMO‐PPM1H WT; source: E. coli BL21-DE3-pLysS, purified (cobalt resin, Superdex 200); not shown: His6, N-terminal, kept; SUMO, N-terminal, kept
- stoichiometry N: 2
